Literature values as cited in patent US20050255458A1, “Drug discovery assays based on the biology of chronic disease” (priority 2002, published 2005).

Sequences of proteins named here, by UniProt entry; tags and fusion partners are left off. A change or cut given only in a name is not applied to a line headed by its entry.
UniProt P10275: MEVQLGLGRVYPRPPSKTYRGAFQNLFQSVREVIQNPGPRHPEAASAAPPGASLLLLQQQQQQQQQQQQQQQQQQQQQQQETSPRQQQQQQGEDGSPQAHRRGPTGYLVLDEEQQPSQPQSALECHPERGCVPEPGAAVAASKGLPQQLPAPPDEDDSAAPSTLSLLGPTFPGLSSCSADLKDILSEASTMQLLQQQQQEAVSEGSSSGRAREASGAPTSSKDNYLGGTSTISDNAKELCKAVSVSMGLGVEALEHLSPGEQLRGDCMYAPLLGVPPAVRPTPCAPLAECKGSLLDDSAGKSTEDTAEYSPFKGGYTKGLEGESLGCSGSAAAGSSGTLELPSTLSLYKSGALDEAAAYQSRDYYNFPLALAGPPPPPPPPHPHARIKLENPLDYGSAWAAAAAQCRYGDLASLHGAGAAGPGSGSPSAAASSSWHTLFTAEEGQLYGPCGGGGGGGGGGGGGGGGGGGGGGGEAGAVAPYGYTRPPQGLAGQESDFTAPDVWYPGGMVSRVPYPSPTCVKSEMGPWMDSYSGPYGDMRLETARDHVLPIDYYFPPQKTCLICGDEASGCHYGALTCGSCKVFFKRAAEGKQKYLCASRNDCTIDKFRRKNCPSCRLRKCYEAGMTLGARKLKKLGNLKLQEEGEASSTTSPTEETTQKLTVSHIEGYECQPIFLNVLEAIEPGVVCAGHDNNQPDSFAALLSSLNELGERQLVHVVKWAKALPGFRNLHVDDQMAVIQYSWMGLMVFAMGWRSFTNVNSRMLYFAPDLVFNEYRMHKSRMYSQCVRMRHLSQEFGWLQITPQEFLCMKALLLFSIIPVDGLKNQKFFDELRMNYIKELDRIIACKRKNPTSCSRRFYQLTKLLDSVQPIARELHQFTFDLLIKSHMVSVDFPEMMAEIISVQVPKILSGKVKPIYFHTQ

Target: AR (Homo sapiens, UniProt P10275)
Conditions: cited from earlier work

Substance: [^3H]methyltrienolone [[3H]methyltrienolone (R1881)]
- Kd: 0.9 ± 0.03 nM
